Test: Drug release assay from Fmoc-FF/S hydrogel into PBS release buffer, HPLC analysis
Format: physicochemical
Details: for Concentration (ug/mL) Control: control solution in PBS
Protocol: (§1) An 1100 Series high-performance liquid chromatography pump (Agilent, USA) was used for the analysis which was performed using acetonitrile with 0.1% TFA and water with 0.1% TFA. […] This concentration was kept constant until 16 mins; after that the gradient was decreased, reaching 40% (v/v) acetonitrile in water at 19 mins. The data was then processed manually using the software ‘Agilent Chemstation.’
The triplicate samples of release buffer were analysed by HPLC, and for the peaks corresponding to each model drug compound the peak area was measured. The average peak area was recorded, and using a standard curve prepared for each compound the concentration of each was determined.
At each of the specified time points the release buffer remaining in the wells was transferred to HPLC vials and stored at 4° C. until HPLC analysis was performed.
as §1, with “mins when” for “mins; after that”, “decreased to” for “decreased, reaching”
The triplicate samples of release buffer were analysed by HPLC, and for the peaks corresponding to each model drug compound the peak area was measured. The average peak area was recorded, and using standard curve prepared for each compound the concentration of each was determined.

C=C[C@H]1C[N@]2CC[C@H]1C[C@@H]2[C@@H](O)c1ccnc2ccc(OC)cc12 [Quinidine]
Concentration (ug/mL) Gel (30 min, drug in Fmoc-FF/S gel, release buffer PBS 37° C.): 1.82 µg/mL | Concentration (ug/mL) Gel (3 h, Fmoc-FF/S gel): 3.10 µg/mL | Concentration (ug/mL) Control (3 h): 32.25 µg/mL | Concentration (ug/mL) Control (6 h): 0.47 µg/mL | Concentration (ug/mL) Control (9 h): 0.04 µg/mL | Concentration (ug/mL) Gel (24 h, Fmoc-FF/S gel): 5.11 µg/mL | Concentration (ug/mL) Control (24 h): 0 µg/mL | Concentration (ug/mL) Gel (48 h, Fmoc-FF/S gel): 6.22 µg/mL | Concentration (ug/mL) Control (48 h): 0 µg/mL | Concentration (ug/mL) Gel (72 h, Fmoc-FF/S gel): 4.15 µg/mL | Concentration (ug/mL) Control (72 h): 0 µg/mL | Concentration (ug/mL) Gel (5 d, Fmoc-FF/S gel): 2.17 µg/mL | Concentration (ug/mL) Control (5 d): 0 µg/mL | Concentration (ug/mL) Gel (7 d, Fmoc-FF/S gel): 2.98 µg/mL | Concentration (ug/mL) Control (7 d): 0 µg/mL
